Laboratory results taken from patent publication US11464866B2, “Pharmaceutical composition containing macromolecular drug” (BIODYNAMIC RESEARCH FOUNDATION, priority 2016, dated 2022).

Tests used:
[1] = Stability of P-THP in solution (free THP by HPLC, 488 nm); assay type: physicochemical; conditions: both in arginine buffers and sodium bicarbonate buffers
Excerpt: Sample: […] Method: […] Then, the decomposition product, i.e. free pirarubicin (THP), was separated by HPLC (High Performance Liquid Chromatography) (column: JSK Gel SW3000, Detection: Absorbance 488 nm, Elution: a mixed solution of 80% methanol and 20% 0.1 M sodium acetate at pH 7.0) and quantified by absorbance at 488 nm.

[2] = Dissolution time of P-THP dry powder product in aqueous solutions; conditions: with dissolution-enhancing and/or stabilizing agent such as arginine

Substance: polyhydroxypropylmethacrylamide (HPMA)-bound THP [P-THP]
- pH of best stability [1]: ~8.5
- water-solubility [2]: greatly improved
